Among the data in PMC8395285, “Novel 2-(Adamantan-1-ylamino)Thiazol-4(5H)-One Derivatives and Their Inhibitory Activity towards 11β-HSD1—Synthesis, Molecular Docking and In Vitro Studies” (International Journal of Molecular Sciences, 2021) are IC50 values, retold here.

Amino acid sequences for entries named in this document (tags omitted). A change or cut given only in a name is not applied to a line headed by its entry.
UniProt P28845: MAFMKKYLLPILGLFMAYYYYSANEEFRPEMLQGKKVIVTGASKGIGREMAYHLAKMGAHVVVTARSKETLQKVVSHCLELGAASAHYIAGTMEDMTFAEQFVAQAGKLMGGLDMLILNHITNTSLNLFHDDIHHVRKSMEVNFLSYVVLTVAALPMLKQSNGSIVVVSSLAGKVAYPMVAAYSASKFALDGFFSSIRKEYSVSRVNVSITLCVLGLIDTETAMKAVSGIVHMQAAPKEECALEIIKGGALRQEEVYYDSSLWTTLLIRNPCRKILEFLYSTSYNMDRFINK

What is called IC50 is the concentration needed to halve the response being measured.

The assay deals with T1, 11β-HSD1 (Homo sapiens, UniProt P28845).
T1 construct: Human liver microsomes were used as a source of 11β-HSD1 enzyme; tissue XenoTech Lot No.1410013; host or cells: pooled human liver microsomes, mixed gender
Nature of the assay: Inhibition of 11β-HSD1 (cortisone to cortisol, human liver microsomes, cortisol ELISA). Format: biochemical. The conditions noted are these: concentrations 0.625-10.0 µM, read from the chart. The procedure: 11β-HSD1 assays: carbenoxolone (sodium salt) (Cayman Chemical Company, Ann Arbor, MI, USA), cortisone, NADPH tetrasodium salt, phosphate buffer powder, (Sigma-Aldrich, Poznań, Poland), Pooled human liver microsomes, mixed gender, 1 mL, 20 mg/mL Lot No.1410013-XenoTech, Cortisol Elisa Ref DkO001 Lot No. 4715A (DiaMetra, Spello, Italy), ELISA Kit for 11-Beta-Hydroxysteroid Dehydrogenase Type 1 Lot No.L160706125-(Cloud-Clone Corp., Wuhan, China), PBS Lot No. H161008 (Pan Biotech, Aidenbach, Germany).
. Standard 96-well microplates were filled with reagent mixture: cortisone/NADPH (20 μL, to achieve the final concentration of 200 nM/2 μM), microsomes (10 μL, 1.13 μg of 11β-HSD1 in 1 mL) solution in PBS (final amount of 2.5 μg), phosphate buffer (60 μL, pH 7.4), and 10 µL of compounds 3a–3j dissolved in the mixture containing 1% of DMSO and 99% of water. The resulting solution with a final volume of 100 µL was incubated for 2.5 h at 37 °C. To stop the reaction, 10 µL of a 100 µM solution of 18β-glycyrrhetinic acid in PBS was added. The level of cortisol obtained in the reaction was measured by commercially available ELISA kit.
Calibration curves to determine IC50 values for compounds 3a–3j were obtained using their solutions at concentrations of 0.625, 1.25, 2.5, 5.0, and 10.0 µM and using standard procedure and conditions as described in the previous sections. […]
Background: Liver microsomes are a subcellular fraction often used to study metabolism.

For the molecule `CC1(C)[C@@H](OC(=O)CCC(=O)O)CC[C@]2(C)[C@H]3C(=O)C=C4[C@@H]5C[C@@](C)(C(=O)O)CC[C@]5(C)CC[C@@]4(C)[C@]3(C)CC[C@@H]12` [carbenoxolone, reference compound], the IC50 turned out to be 0.16 ± 0.15 µM.
